Experimental data as given in BindingDB's records for doi:10.1111/j.1749-6632.1998.tb10185.x (Albany Medical College, 1998).

Biological target: T1, 5-hydroxytryptamine receptor 2C (Rattus norvegicus, UniProt P08909)
T1 sequence (P08909 whole entry): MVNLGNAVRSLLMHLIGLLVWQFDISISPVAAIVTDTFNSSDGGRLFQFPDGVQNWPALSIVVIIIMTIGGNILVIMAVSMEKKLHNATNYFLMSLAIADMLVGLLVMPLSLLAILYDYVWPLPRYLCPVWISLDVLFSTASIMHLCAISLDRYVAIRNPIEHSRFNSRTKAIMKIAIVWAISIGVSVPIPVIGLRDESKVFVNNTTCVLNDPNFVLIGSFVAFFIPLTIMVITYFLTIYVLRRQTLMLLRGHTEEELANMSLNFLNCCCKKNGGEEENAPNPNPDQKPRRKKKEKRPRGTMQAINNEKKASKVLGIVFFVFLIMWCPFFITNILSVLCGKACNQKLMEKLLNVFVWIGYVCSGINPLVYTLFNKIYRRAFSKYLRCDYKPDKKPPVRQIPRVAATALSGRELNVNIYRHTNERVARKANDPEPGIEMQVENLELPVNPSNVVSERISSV

COc1cc(CC(C)N)c(OC)cc1Br (stereo not drawn) [2-(4-Bromo-2,5-dimethoxy-phenyl)-1-methyl-ethylamine((-)-DOB)]
Ki: 152 nM
